The values that follow come from patent US4021546A (priority 1976, dated 1977).

Read-outs that look alike come from different tables or passages of the source.

In the case of “DIGOXIN MONO-(N,N-DIMETHYL)-GLYCINATE [Example I]”, the solubility stood at 12.6 mg/mL (0.01 N HCl) and 12.2 mg/mL (pH of 3, citrate buffer).

As usually defined, the solubility is how much of the substance goes into solution per volume. Lower therefore signals little dissolved substance.
